Only a part is listed here, and it is no random draw. Results filed as inconclusive are left out. A call without a number means that no potency is given here. Activity calls are given as the source filed them. Calls follow the shape of the dose curve; as a rule, active = well fitted inhibition curve with a large enough effect; inconclusive = small, poorly fitted or top-dose-only effect, or another doubt; inactive = no such curve, though single readings can be large or run the other way.
test: Primary qHTS for delayed death inhibitors of the malarial parasite plastid, 48 hour incubation; conditions: P. falciparum luciferase growth in erythrocytes; series mostly up to 28.7 µM
Source text: The goal of this screen is to discover new antimalarial compounds that act by inhibiting the development of the apicoplast in the malarial parasite Plasmodium falciparum. The biochemical processes that make this organelle essential for erythrocytic stage parasites are not well understood. However, antibiotics such as azithromycin and tetracycline, which target the apicoplast translational machinery, have a potent antimalarial effect.
We have developed a cell-based assay that measures parasite growth based on the expression of an integrated copy of a firefly luciferase reporter. To detect small molecules that cause this "delayed death" phenotype, erythrocytes infected with the luciferase-expressing parasites were incubated with compounds for either one or two generations, corresponding to 48 and 96 hours, respectively. Compounds that inhibit parasite growth in the second generation, but not the first, should be enriched in antimalarials that target the apicoplast. Growth inhibition is detected by a decrease in luciferase activity.
Assay Provider: David Fidock and Eric Ekland, Columbia University
Keywords: NIH Roadmap, MLPCN, MLI, MLSMR, qHTS, NCGC, qHTS, malaria, luciferase, viability
Four microliters of culture medium (RPMI 1640 with 0.5% w/v Albumax (GIBCO), 24 mM sodium bicarbonate and 10 ug/mL gentamycin) were dispensed by a Multi-drop Combi into white solid 1536-well plates (Grenier) and 23 nL compound was added by a pin tool. Four microliters of infected erythrocytes (2% hematocrit, 0.1% parasitemia final concentration) in culture medium were dispensed and the plates incubated for 48 hours at 37 C in 5% CO2. Two microliters of luciferase detection reagent was added and luminescence was detected by a ViewLux (PerkinElmer) reader.
Potency is read from the fitted curve at half-maximal effect.

Structure (SMILES)	Potency
CC(Cc1ccc(O)cc1)NCC(O)c1cc(O)cc(O)c1 (stereo not drawn)	inactive
COc1ccc(C[C@H](C)NC[C@@H](O)c2ccc(O)c(NC=O)c2)cc1	active: 16.9 µM
C[C@@H](Cc1ccc(O)cc1)NC[C@@H](O)c1cc(O)cc(O)c1	inactive

Source: PubChem BioAssay AID504832 (National Center for Advancing Translational Sciences (NCATS), 2011)
